Reference: patent US20160137639A1, “TRIAZOLE-ISOXAZOLE COMPOUND AND MEDICAL USE THEREOF” (JAPAN TOBACCO INC., priority 2012, published 2016)
Read-outs that look alike come from different tables or passages of the source.

The chains behind the UniProt entries cited, without tags or fusion partners. Residues count along the entry.
UniProt P51449, 253-518 limits assumed: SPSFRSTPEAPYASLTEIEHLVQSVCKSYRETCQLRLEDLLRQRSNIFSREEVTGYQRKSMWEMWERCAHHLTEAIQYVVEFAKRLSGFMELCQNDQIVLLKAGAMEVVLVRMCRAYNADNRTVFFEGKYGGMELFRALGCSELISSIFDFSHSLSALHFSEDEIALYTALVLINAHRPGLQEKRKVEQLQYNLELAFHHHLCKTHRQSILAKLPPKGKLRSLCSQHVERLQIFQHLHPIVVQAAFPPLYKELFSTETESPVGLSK
UniProt P51450, 251-516 limits assumed: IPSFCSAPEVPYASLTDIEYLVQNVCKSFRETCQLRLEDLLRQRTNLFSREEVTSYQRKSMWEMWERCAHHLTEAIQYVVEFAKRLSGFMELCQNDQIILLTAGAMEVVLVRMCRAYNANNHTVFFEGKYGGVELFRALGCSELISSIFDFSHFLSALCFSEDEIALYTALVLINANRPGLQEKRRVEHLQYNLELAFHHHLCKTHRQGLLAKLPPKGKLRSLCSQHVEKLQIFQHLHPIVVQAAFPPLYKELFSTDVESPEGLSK

What was measured:
human RORγ = human RORγ (Homo sapiens, UniProt P51449); test: Luciferase reporter gene assay of inhibitory effect against RORγ transcriptional activity (GAL4-hRORγ plasmid in CHO cells)
mouse RORγ = mouse RORγ (Mus musculus, UniProt P51450); test: Luciferase reporter gene assay of inhibitory effect against RORγ transcriptional activity (GAL4-mRORγ plasmid in CHO cells); type: cell-based
[1] = read-out: LUC EC50 hRORg, tested form: HCl
[2] = read-out: LUC EC50 mRORg, tested form: HCl

Row | EC50 (human RORγ; read-out: LUC EC50 (μM) hRORg) | EC50 (mouse RORγ; read-out: LUC EC50 (μM) mRORg) | Structure (SMILES) | further results
1 | > 3 µM | < 3 µM | Cc1ccc(NC(=O)C[C@@H](C[C@H](C)O)c2nnc(CCCC(C)C)n2C2CC2)c(C)c1 | –
2 | < 3 µM | < 3 µM | Cc1ccc(NC(=O)C[C@H](C[C@H](C)O)c2nnc(CCCC(C)C)n2C2CC2)c(C)c1 | –
3 | – | – | Cc1ccc(NC(=O)[C@H]2CN(C(=O)C(C)(C)O)C[C@@H]2c2nnc([C@H]3C[C@@H](CC(C)C)C3)n2C2CC2)c(C)c1 | EC50 (human RORγ; [1]): < 3 µM; EC50 (mouse RORγ; [2]): < 3 µM
4 | < 3 µM | < 3 µM | Cc1ccc(NC(=O)C[C@H](C[C@H](C)OCc2ccccc2)c2nnc(CCCC(C)C)n2C2CC2)c(C)c1 | –
5 | < 3 µM | < 3 µM | Cc1ccc(NC(=O)C2CCC(=O)N(C)C2c2nnc(CCCC(C)(C)C)n2C2CC2)c(C)c1 (stereo not drawn) | –
6 | < 3 µM | < 3 µM | Cc1ccc(NC(=O)C[C@H](C[C@@H](C)O)c2nnc(CCCC(C)C)n2C2CC2)c(C)c1 | –
7 | < 3 µM | < 3 µM | CCn1c(CCC(=O)NCc2cccc3ccccc23)nnc1CCC1CCCCC1 | –
8 | – | – | Cc1ccc(NC(=O)CC(CC(C)(C)O)c2nnc(CCCC(C)C)n2C2CC2)c(C)c1 (stereo not drawn) | EC50 (human RORγ; read-out: LUC EC50 (μM) hRORg, tested form: racemic form): < 3 µM; EC50 (mouse RORγ; read-out: LUC EC50 (μM) mRORg, tested form: racemic form): < 3 µM
9 | > 3 µM | > 3 µM | Cc1ccc(NC(=O)C[C@@H](CC(C)(C)O)c2nnc(CCCC(C)C)n2C2CC2)c(C)c1 | –
10 | > 3 µM | > 3 µM | Cc1ccc(NC(=O)C[C@@H](C[C@H](C)OCc2ccccc2)c2nnc(CCCC(C)C)n2C2CC2)c(C)c1 | –
11 | – | – | CC(C)Cc1cc(-c2nnc([C@H](CC(=O)Nc3ccc4c(c3)OC(F)(F)O4)OC(C)C)n2C2CC2)no1 | EC50 (human RORγ; [1]): < 3 µM; EC50 (mouse RORγ; [2]): < 3 µM
12 | – | – | CC(C)(C)C(F)(F)c1cc(-c2onc([C@@H](CC(=O)O)CC(=O)Nc3ccc(Cl)cc3F)c2C2CC2)no1 | EC50 (human RORγ; read-out: LUC EC50 (μM) hRORg, tested form: Na salt): < 3 µM; EC50 (mouse RORγ; read-out: LUC EC50 (μM) mRORg, tested form: Na salt): < 3 µM
13 | – | – | Cc1ccc(NC(=O)C[C@H](CCO)c2nnc([C@H]3C[C@@H](CC(C)C)C3)n2C2CC2)c(Cl)c1 | EC50 (human RORγ; read-out: LUC EC50 hRORg): < 3 µM; EC50 (mouse RORγ; read-out: LUC EC50 mRORg): < 3 µM
14 | > 3 µM | > 3 µM | Cc1c(Cl)cccc1NC(=O)CCc1nnc(CC(=O)N(C)C)n1C1CC1 | –
15 | < 3 µM | < 3 µM | C=CCC(CC(=O)Nc1ccc(C)cc1C)c1nnc(CCC2CCCCC2)n1C1CC1 (racemic) | –
16 | < 3 µM | < 3 µM | Cc1ccc(NC(=O)C[C@H](CNC(=O)C(C)(C)O)c2nnc([C@H]3C[C@@H](CC(C)C)C3)n2C2CC2)c(C)c1 | –
17 | > 3 µM | > 3 µM | Cc1ccc(NC(=O)C[C@@H](C[C@@H](C)O)c2nnc(CCCC(C)C)n2C2CC2)c(C)c1 | –
18 | – | – | Cc1ccc(NC(=O)C[C@H](OCC(C)C)c2nnc(-c3cc(CC(C)C)on3)n2C2CC2)c(C)c1 | EC50 (human RORγ; read-out: LUC EC50 hRORg): < 3 µM; EC50 (mouse RORγ; read-out: LUC EC50 mRORg): < 3 µM

Row | Structure (SMILES) | EC50 (human RORγ; read-out: LUC EC50 (μM) hRORg) | EC50 (mouse RORγ; read-out: LUC EC50 (μM) mRORg) | further results
19 | CCn1c(CCC(=O)NCc2cccc(C)c2)nnc1CCC1CCCCC1 [Example F-42] | > 3 µM | > 3 µM | –
20 | Cc1ccc(NC(=O)C[C@H](CC(C)(C)O)c2nnc(CCCC(C)C)n2C2CC2)c(C)c1 | < 3 µM | < 3 µM | EC50 (human RORγ; read-out: LUC EC50 (μM) hRORg, tested form: hydrochloride): < 3 µM; EC50 (mouse RORγ; read-out: LUC EC50 (μM) mRORg, tested form: hydrochloride): < 3 µM
